Each compound was assayed against Matrix metalloproteinase-9 (Homo sapiens, UniProt P14780) (assay: Inhibition of recombinant human matrix metalloprotease-9).

Sequences of proteins named here, by UniProt entry; tags and fusion partners are left off. A change or cut given only in a name is not applied to a line headed by its entry.
UniProt P14780: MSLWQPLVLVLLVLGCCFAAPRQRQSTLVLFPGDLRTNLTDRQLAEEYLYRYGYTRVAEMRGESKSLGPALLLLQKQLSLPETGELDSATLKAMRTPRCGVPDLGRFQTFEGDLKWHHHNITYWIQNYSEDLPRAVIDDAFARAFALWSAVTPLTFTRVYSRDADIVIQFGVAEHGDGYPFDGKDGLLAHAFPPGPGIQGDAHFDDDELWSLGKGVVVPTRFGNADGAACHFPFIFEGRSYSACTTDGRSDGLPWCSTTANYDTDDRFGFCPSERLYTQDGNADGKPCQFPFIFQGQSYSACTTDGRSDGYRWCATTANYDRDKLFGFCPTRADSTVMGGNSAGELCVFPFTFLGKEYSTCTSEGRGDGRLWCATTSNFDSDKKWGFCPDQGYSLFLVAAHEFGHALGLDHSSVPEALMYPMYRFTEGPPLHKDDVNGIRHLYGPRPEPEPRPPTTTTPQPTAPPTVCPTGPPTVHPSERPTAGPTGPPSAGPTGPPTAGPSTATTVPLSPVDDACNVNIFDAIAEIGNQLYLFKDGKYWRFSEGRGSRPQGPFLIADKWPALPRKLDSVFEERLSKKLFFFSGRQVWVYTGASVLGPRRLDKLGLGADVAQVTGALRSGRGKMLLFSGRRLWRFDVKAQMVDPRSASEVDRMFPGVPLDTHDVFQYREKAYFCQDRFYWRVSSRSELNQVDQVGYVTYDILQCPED

Row | Compound | Ki
1 | COc1ccc(S(=O)(=O)N2C[C@H](O)[C@@H](O)[C@@H](O)[C@@H]2C(=O)NO)cc1 | 157 nM
2 | COc1ccc(S(=O)(=O)N2C[C@@H](O)[C@H](O)[C@@H](O)[C@@H]2C(=O)NO)cc1 | 82 nM
3 | COc1ccc(S(=O)(=O)N2C[C@H](O)[C@H](O)[C@@H](O)[C@@H]2C(=O)NO)cc1 | 780 nM
4 | COc1ccc(S(=O)(=O)N2C[C@H](O)[C@@H](O)[C@H](O)[C@@H]2C(=O)NO)cc1 | 4.8 nM

From ChEMBL document CHEMBL1144950, “Structure--activity relationships of azasugar-based MMP/ADAM inhibitors” (Bioorg Med Chem Lett, 2003)
